# doi:10.1101/2025.05.27.25328314
# The chains behind the UniProt entries cited, without tags or fusion partners. Residues count along the entry.
# UniProt Q9UBS5, 20-961: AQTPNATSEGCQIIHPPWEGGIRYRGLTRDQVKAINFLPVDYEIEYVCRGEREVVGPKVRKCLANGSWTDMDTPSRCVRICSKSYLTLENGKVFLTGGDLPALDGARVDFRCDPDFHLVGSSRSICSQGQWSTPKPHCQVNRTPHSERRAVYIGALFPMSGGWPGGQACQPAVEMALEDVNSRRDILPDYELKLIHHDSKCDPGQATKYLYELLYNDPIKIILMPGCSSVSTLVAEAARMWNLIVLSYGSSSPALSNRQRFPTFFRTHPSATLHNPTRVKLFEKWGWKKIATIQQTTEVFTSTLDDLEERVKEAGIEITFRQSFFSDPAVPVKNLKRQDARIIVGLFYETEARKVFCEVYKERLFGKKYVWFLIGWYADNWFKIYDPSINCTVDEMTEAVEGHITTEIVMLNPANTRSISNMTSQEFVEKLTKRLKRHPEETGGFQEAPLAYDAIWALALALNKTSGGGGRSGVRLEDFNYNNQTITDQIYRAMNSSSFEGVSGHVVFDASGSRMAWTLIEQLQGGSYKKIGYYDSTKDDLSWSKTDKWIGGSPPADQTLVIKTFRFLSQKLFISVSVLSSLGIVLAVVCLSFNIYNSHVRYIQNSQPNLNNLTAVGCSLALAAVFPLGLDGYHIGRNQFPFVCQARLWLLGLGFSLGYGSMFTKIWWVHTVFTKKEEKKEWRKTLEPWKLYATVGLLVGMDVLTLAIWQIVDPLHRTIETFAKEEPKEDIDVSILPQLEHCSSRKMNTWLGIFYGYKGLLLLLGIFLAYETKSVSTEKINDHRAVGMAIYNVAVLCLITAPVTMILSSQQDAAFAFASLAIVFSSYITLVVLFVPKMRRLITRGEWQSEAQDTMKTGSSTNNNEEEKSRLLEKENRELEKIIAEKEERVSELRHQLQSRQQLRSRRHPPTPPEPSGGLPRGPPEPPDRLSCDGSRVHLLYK
# Columns and labels:
# [1] = target: type B γ-aminobutyric acid receptor 1 (GABAB1R) (human (endogenous in parathyroid tissue)) (UniProt Q9UBS5)
# [2] = target: T1, extracellular Ca2+-sensing receptor (CaSR) (human (endogenous in parathyroid tissue)) (UniProt P41180)
# T1 sequence: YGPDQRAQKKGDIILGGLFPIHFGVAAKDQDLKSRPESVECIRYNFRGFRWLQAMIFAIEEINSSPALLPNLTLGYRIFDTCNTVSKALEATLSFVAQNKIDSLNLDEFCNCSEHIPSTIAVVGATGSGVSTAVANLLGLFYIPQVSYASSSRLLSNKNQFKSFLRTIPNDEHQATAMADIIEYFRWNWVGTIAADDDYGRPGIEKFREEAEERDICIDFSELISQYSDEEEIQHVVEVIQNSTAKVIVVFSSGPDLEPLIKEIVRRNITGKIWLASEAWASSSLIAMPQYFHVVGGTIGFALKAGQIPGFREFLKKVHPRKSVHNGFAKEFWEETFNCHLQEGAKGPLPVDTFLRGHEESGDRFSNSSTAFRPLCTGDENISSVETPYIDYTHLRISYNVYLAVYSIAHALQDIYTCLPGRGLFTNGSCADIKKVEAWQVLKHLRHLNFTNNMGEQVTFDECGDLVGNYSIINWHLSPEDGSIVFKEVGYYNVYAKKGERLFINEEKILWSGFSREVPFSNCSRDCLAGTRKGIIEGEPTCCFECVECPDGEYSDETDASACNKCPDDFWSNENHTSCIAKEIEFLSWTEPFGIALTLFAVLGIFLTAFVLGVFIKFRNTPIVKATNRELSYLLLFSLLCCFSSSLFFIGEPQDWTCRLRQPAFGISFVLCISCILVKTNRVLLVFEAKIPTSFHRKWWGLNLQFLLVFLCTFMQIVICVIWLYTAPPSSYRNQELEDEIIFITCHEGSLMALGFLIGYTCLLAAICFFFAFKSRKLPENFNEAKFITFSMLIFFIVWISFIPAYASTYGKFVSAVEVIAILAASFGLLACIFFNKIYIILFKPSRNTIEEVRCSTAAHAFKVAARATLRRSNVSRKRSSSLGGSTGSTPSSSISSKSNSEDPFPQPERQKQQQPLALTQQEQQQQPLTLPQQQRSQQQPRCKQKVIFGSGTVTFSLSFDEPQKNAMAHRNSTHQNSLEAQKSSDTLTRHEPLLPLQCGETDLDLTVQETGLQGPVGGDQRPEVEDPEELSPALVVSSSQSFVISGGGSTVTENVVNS
substance,measurement,setting,value
β-amyloid peptide Aβ42 (Aβ1–42) (from UniProt P05067 672-713),"rate of PTH secretion of parathyroid glands cultured from PTCApp−/− mice (mouse receptors), Aβ42 0.3 to 1000 nM at 1 mM [Ca2+]e; EC50",[1],5.6 nM
same,"rate of PTH secretion of parathyroid glands cultured from PTCApp−/− mice (mouse receptors), Aβ42 0.3 to 1000 nM at 1 mM [Ca2+]e; EC50",[2],5.6 nM
